Reference: US20220251232A1 (INSERM INSTITUT NATIONAL DE LA SANT ET DE LA RECHERCHE M …, published 2022)

Target: T1, human CD25 (Interleukin-2 receptor alpha chain) (human, UniProt P01589 22-272)
T1 sequence (looked up): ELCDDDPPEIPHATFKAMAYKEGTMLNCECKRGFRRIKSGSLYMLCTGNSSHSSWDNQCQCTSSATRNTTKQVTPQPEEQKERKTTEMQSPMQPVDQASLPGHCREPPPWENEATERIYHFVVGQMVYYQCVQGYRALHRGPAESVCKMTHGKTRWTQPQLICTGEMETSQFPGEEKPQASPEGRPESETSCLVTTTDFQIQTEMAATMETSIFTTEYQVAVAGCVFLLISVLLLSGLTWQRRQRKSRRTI
Test: cell-based or functional assay

B1: Basiliximab (antibody, V domains shown)
VH: QVQLQQSGTVLARPGASVKMSCKASGYSFTRYWMHWIKQRPGQGLEWIGAIYPGNSDTSYNQKFEGKAKLTAVTSASTAYMELSSLTHEDSAVYYCSRDYGYYFDFWGQGTTLTVSS
VL: QIVSTQSPAIMSASPGEKVTMTCSASSSRSYMQWYQQKPGTSPKRWIYDTSKLASGVPARFSGSGSGTSYSLTISSMEAEDAATYYCHQRSSYTFGGGTKLEIK
  IL-2 induced T-cell proliferation, Mean (control = 100): 10
